Earlier results on one substance are cited in US20200306244A1, “WNT INHIBITORS FOR USE IN THE TREATMENT OF FIBROSIS” (NOVARTIS AG, priority 2016, published 2020).

Amino acid sequences for entries named in this document (tags omitted). Residues count along the entry.
UniProt Q13705, 19-512: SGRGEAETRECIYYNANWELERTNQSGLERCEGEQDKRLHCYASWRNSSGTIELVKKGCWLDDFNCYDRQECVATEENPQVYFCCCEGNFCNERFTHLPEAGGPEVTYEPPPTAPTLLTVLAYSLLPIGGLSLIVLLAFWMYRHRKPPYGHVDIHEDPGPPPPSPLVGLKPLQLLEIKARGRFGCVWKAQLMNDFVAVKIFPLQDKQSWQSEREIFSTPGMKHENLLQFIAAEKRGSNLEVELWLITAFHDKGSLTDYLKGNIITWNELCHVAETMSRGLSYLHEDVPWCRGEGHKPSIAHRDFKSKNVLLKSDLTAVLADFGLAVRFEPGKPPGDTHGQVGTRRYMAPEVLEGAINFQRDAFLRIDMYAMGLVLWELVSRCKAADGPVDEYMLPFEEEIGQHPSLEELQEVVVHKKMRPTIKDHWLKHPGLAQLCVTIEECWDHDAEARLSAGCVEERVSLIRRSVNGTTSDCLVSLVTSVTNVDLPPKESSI
UniProt P27037, 20-513: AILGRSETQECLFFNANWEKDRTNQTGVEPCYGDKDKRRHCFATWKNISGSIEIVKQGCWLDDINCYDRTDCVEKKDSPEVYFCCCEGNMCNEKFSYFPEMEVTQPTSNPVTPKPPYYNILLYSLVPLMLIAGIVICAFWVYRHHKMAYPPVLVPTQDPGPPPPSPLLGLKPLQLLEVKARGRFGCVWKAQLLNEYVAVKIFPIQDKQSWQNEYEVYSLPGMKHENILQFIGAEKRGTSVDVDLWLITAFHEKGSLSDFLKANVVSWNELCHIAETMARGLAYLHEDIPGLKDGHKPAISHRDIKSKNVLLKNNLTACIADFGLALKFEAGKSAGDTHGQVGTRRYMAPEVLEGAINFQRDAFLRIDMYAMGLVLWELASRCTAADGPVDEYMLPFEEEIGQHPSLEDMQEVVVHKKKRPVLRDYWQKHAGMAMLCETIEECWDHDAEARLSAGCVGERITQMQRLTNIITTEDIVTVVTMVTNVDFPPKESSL

The target in one data set is human ActRIIB (Homo sapiens, UniProt Q13705). Particulars: cited from earlier work.
The next data set deals with human ActRIIA (Homo sapiens, UniProt P27037). Particulars: cited from earlier work.

For orientation: Kd means the equilibrium constant for the complex coming apart. For the substance “Bimagrumab: fully human monoclonal antibody (modified IgG1) binding the ligand binding domain of activin receptor type II (ActRII)”, the Kd in the data set with human ActRIIB is 0.0017 ± 0.0003 nM; with human ActRIIA it was 0.434 ± 0.025 nM.
